# Permeability data for macrocyclic peptides

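Conditions beyond the assay type are not listed; see the original paper. Other peptides of the study may be missing here. Entries at the database's floor value (log10 P of -10) are not listed.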

PAMPA is the parallel artificial membrane permeability assay, which has no cells and reads passive diffusion. Permeability is given as log10 of P in cm/s; higher (less negative) is more permeable.

* CC(C)C[C@@H]1C(=O)N[C@@H](Cc2ccccc2)CC(=O)N2CCC[C@@H]2C(=O)N(C)[C@H](CC(C)C)C(=O)N[C@@H](Cc2ccccc2)C(=O)N2CCC[C@@H]2C(=O)N[C@@H](Cc2ccccc2)CC(=O)N1C: PAMPA -5.60 (log10 cm/s)
* CC(C)C[C@H]1C(=O)N[C@@H](Cc2ccccc2)CC(=O)N2CCC[C@@H]2C(=O)N(C)[C@@H](CC(C)C)C(=O)N[C@@H](Cc2ccccc2)C(=O)N2CCC[C@H]2C(=O)N[C@@H](Cc2ccccc2)CC(=O)N1C: PAMPA -5.56 (log10 cm/s)
* CC(C)C[C@@H]1NC(=O)[C@@H](CC(C)C)N(C)C(=O)[C@@H](C)N(C)C(=O)[C@@H]2CCCN2C(=O)[C@H](Cc2ccccc2)NC(=O)[C@@H](CC(C)C)N(C)C(=O)[C@@H]2CCCN2C1=O: PAMPA -5.27 (log10 cm/s)
* CC(C)C[C@H]1NC(=O)[C@@H](C)N(C)C(=O)[C@@H]2CCCN2C(=O)[C@H](Cc2ccccc2)NC(=O)[C@H](CC(C)C)N(C)C(=O)[C@@H]2CCCN2C(=O)C[C@H](Cc2ccccc2)NC1=O: PAMPA -5.78 (log10 cm/s)
* CC(C)C[C@H]1NC(=O)[C@H](C)NC(=O)[C@H]2CCCN2C(=O)[C@H](Cc2ccccc2)NC(=O)[C@H](CC(C)C)N(C)C(=O)[C@@H]2CCCN2C(=O)[C@H](CC(C)C)N(C)C1=O: PAMPA -5.73 (log10 cm/s)
* CC(C)C[C@H]1C(=O)N(Cc2ccccc2)CC(=O)N2CCC[C@H]2C(=O)N(C)[C@@H](CC(C)C)C(=O)N[C@@H](Cc2ccccc2)C(=O)N2CCC[C@H]2C(=O)N(C)[C@@H](C)C(=O)N1C: PAMPA -5.48 (log10 cm/s)
* CC(C)C[C@@H]1C(=O)N[C@@H](Cc2ccccc2)C(=O)N2CCC[C@H]2C(=O)N(C)[C@H](C)C(=O)N[C@H](CC(C)C)C(=O)N(C)[C@@H](CC(C)C)C(=O)N2CCC[C@@H]2C(=O)N1C: PAMPA -5.18 (log10 cm/s)
* CC(C)C[C@@H]1NC(=O)[C@@H]2CCCN2C(=O)CN(Cc2ccccc2)C(=O)[C@@H](CC(C)C)NC(=O)[C@@H](C)NC(=O)[C@H](Cc2ccccc2)NC1=O: PAMPA -6.21 (log10 cm/s)
* CC(C)C[C@H]1NC(=O)[C@@H](C)NC(=O)[C@@H]2CCCN2C(=O)[C@H](Cc2ccccc2)NC(=O)CN(Cc2ccccc2)C(=O)[C@H]2CCCN2C(=O)[C@H](CC(C)C)N(C)C1=O: PAMPA -5.80 (log10 cm/s)
* CC(C)C[C@@H]1NC(=O)[C@H]2CCCN2C(=O)C[C@H](Cc2ccccc2)NC(=O)[C@H](CC(C)C)N(C)C(=O)[C@@H](C)N(C)C(=O)[C@@H]2CCCN2C(=O)[C@H](Cc2ccccc2)NC1=O: PAMPA -6.36 (log10 cm/s)
* CC(C)C[C@H]1NC(=O)[C@H](CC(C)C)N(C)C(=O)[C@H](C)N(C)C(=O)[C@H](Cc2ccccc2)NC(=O)CN(Cc2ccccc2)C(=O)[C@@H]2CCCN2C1=O: PAMPA -4.90 (log10 cm/s)
* CC(C)C[C@@H]1NC(=O)[C@H](CC(C)C)N(C)C(=O)[C@@H](C)N(C)C(=O)[C@H]2CCCN2C(=O)[C@H](Cc2ccccc2)NC(=O)[C@@H](CC(C)C)NC(=O)[C@@H]2CCCN2C1=O: PAMPA -6.33 (log10 cm/s)

Again, the 2 entries with the lowest PAMPA:

{"smiles": "CC(C)C[C@@H]1NC(=O)[C@H]2CCCN2C(=O)C[C@H](Cc2ccccc2)NC(=O)[C@H](CC(C)C)N(C)C(=O)[C@@H](C)N(C)C(=O)[C@@H]2CCCN2C(=O)[C@H](Cc2ccccc2)NC1=O", "PAMPA (log10 cm/s)": "-6.36"}
{"smiles": "CC(C)C[C@@H]1NC(=O)[C@H](CC(C)C)N(C)C(=O)[C@@H](C)N(C)C(=O)[C@H]2CCCN2C(=O)[C@H](Cc2ccccc2)NC(=O)[C@@H](CC(C)C)NC(=O)[C@@H]2CCCN2C1=O", "PAMPA (log10 cm/s)": "-6.33"}

Source: CycPeptMPDB (Li et al. 2023), which took these values from Townsend et al. 2020, doi:10.26434/chemrxiv.13335941.v1.